Measurements published in US7605227B2, “Melanoma antigen peptide analogues” (MannKind Corporation, priority 2005, dated 2009).

How the values were obtained:
[1] = test system: T cell lines against a natural (non-mutated) epitope (SSX-241-49); experiment: Cross-reactivity and functional avidity: IFN-gamma from T cell lines against natural SSX-2 41-49 epitope; format: cell-based, HHD transgenic mice; conditions: IFN-gamma from T cell line raised against native SSX-2 41-49; native = 1, lower = more active;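 also: peptide analogs tested ex vivo with competent APCs, IFN-gamma in supernatant measured by ELISA, readouts include minimal triggering concentration, peak effect and concentration at peak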
[2] = molecular target: HLA-A*0201 (Homo sapiens, UniProt P04439, D140Y/D185E/D98H/E176V/E277Q/G131W/G231S/I119V/I121R/I166T/I218V/L300P/L318F/N151K/N90K/P208A/P217A/Q86G/Q94H/R138H/R169H/T345S); experiment: Peptide binding using T2 cells (SSX-2 41-49 analogs); conditions: half maximal binding of wild-type peptide relative to analog; native = 1.0

Relative affinity (1/RA) [2]: 1.4
Structure (SMILES): CC[C@H](C)[C@H](NC(=O)[C@H](CCCCN)NC(=O)[C@H](CCC(=O)O)NC(=O)[C@H](CO)NC(=O)[C@@H](NC(=O)[C@@H](N)Cc1ccccc1)C(C)C)C(=O)N[C@@H](Cc1ccccc1)C(=O)N[C@@H](Cc1ccc(F)cc1)C(=O)N[C@H](C(=O)O)C(C)C [SSX2 41-49 (K41F, A42V, Y48(Phe-4F)), FVSEKIF(Phe-4F)V]
Cross-reactivity and fct avidity (native to analogs)* [1]: 10
